Measurements: ChEMBL document CHEMBL1155418, “Synthesis and structure-activity relationships of N3-pyridylpyrazinones as corticotropin-releasing factor-1 (CRF1) receptor antagonists” (Bioorg Med Chem Lett, 2010)

Columns and labels:
Homo sapiens = organism: Homo sapiens; test: Metabolic stability in human liver microsomes assessed as compound remaining after 10 mins
Rattus norvegicus = organism: Rattus norvegicus; test: Metabolic stability in rat liver microsomes assessed as compound remaining after 10 mins

remaining at 10 min (Homo sapiens)	remaining at 10 min (Rattus norvegicus)	Compound
93%	89%	COC[C@H](C1CC1)n1cc(Cl)nc(Nc2cc(C)c(OC(F)F)nc2C)c1=O
89%	52%	COC[C@H](C1CC1)n1cc(Cl)nc(Nc2ccc(OC(F)F)nc2C)c1=O
67%	77%	COc1nc(C(F)(F)F)c(Nc2nc(Cl)cn([C@H](C)C3CC3)c2=O)cc1C
74%	5%	COC[C@H](C1CC1)n1cc(Cl)nc(Nc2c(C)cc(OC(F)F)nc2C)c1=O
97%	74%	Cc1nc(OC(F)F)ccc1Nc1nc(Cl)cn([C@H](C)C2CC2)c1=O
96%	65%	COc1ccc(Nc2nc(Cl)cn([C@H](C)C3CC3)c2=O)c(C(F)(F)F)n1
98%	29%	COC[C@@H](C1CC1)n1cc(Cl)nc(Nc2ccc(OC(F)F)nc2C)c1=O
